The results in this text go back to ChEMBL document CHEMBL1129946, “New esters of 4-amino-5-chloro-2-methoxybenzoic acid as potent agonists and antagonists for 5-HT4 receptors” (J Med Chem, 1997).

Sequences of proteins named here, by UniProt entry; tags and fusion partners are left off. A change or cut given only in a name is not applied to a line headed by its entry.
UniProt Q62758: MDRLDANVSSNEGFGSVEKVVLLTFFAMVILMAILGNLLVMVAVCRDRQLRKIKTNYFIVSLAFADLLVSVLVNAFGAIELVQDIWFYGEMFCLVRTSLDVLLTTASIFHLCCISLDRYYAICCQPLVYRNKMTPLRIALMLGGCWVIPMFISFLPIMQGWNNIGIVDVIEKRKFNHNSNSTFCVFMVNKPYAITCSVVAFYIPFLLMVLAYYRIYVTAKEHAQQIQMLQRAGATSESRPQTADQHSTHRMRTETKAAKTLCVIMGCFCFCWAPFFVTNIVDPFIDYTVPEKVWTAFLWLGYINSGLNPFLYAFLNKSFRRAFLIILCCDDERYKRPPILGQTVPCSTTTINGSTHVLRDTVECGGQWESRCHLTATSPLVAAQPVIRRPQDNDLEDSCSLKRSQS

The experiment concerns the target 5-hydroxytryptamine receptor 4 (Rattus norvegicus, UniProt Q62758). Briefly: Binding affinity towards 5-hydroxytryptamine 4 receptor was determined in rat striatal membranes using [3H]GR-113808 as radioligand. The experiment is classed as cell membranes, Striatum, Membrane.

pKi: −log10 of the molar value.

In the case of `NCCc1c[nH]c2ccc(O)cc12` [SEROTONIN], the pKi was 6.73.

`CCN(CC)CCNC(=O)c1cc(Cl)c(N)cc1OC` [METOCLOPRAMIDE] showed a pKi below 6.00.

For orientation: pKi means the negative decadic logarithm of the Ki, by convention in mol/L. Higher therefore signals a low Ki.
